Patent US6649355B2, “Lipoxygenase proteins and nucleic acids” (priority 1998, dated 2003)

Target: T1, 15-Lox-2 (second type of human 15S-lipoxygenase) (Homo sapiens, UniProt O15296, Q656R)
T1 construct: Initially, five full length clones were expressed in HEK 293 cells; expressed in transfected cells; host or cells: HEK 293 cells, transient transfection (pCDNA3 or pCR3); sonicated cells incubated with substrate
T1 sequence (O15296 1-676 Q656R): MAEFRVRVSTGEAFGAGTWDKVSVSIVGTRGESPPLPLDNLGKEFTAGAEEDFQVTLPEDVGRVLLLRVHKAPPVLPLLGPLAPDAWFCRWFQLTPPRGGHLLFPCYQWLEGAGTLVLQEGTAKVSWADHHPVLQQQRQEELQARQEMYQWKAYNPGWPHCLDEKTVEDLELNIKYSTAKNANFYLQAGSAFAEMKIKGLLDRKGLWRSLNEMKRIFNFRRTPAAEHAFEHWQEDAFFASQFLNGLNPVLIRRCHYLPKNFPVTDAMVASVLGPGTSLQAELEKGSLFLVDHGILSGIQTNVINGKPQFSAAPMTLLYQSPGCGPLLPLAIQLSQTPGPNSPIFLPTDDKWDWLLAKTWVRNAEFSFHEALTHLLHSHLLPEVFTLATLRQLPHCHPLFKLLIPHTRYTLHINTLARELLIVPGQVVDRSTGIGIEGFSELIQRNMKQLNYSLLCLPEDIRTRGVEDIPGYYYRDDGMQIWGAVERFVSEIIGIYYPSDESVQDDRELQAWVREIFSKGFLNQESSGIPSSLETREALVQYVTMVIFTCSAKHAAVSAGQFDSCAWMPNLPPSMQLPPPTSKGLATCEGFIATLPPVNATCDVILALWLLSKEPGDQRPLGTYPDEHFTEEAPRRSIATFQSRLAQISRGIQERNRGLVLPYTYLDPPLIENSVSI
Test: Lipoxygenase metabolism of 14C substrates by the new 15S-lipoxygenase expressed in HEK 293 cells, HPLC analysis
Assay type: biochemical
From the text: The PCR products corresponding to the open reading frame of the cDNA were subcloned into the pCDNA3 vector (Invitrogen), or in some experiments ligated directly into pCR3 (Invitrogen), and expressed by transient transfection in human embryonic kidney (HEK) 293 cells as described (Funk et al. (1996) J. Biol. Chem. 271, 23338-23344).

With `CCCCC/C=C\C/C=C\C/C=C\C/C=C\CCCC(=O)O` [arachidonic acid] as the compound, how does the “product formed from the substrate” value read?
The value was “exclusively to 15S-hydroperoxyeicosatetraenoic acid”.
